Measurements from ChEMBL document CHEMBL1123735, “6-Methyl-6-azabicyclo[3.2.1]octan-3 alpha-ol 2,2-diphenylpropionate (azaprophen), a highly potent antimuscarinic agent” (J Med Chem, 1987).

Species: Cavia porcellus
Assay: Antimuscarinic activity was assayed for its ability to block the acetyl-choline induced contraction of the guinea pig ileum
Format: functional
Method in brief: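 Distal guinea pig ileum segments (2.5 cm) in oxygenated Krebs–Ringer (5% CO2/95% O2), 37 °C; isometric contractions at 1-g tension. ACh concentration–response curve, maximal response set 100%; antagonist block of ACh contraction expressed as K_B or pA2 from Schild plot.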

Structure (SMILES): CN1CC2CC(OC(=O)C(C)(c3ccccc3)c3ccccc3)CC1C2 (stereo unspecified) [AZAPROPHEN]
- Kb: 39 pM
